Series [1] concerns HCV replicon. In words: HCV replicon assay: HCV RNA by Q-RT-PCR, 4 days exposure. As to conditions: for Corrected HCV RNA log10 reduction: corrected for rRNA. The series is classed as cell-based, hepatitis C virus (HCV). Here is the method: Antiviral screening assays can be done in the same media without G418 as follows: in order to keep cells in logarithmic growth phase, seed cells in a 96-well plate at low density, for example 1000 cells per well. Add the test compound immediate after seeding the cells and incubate for a period of 3 to 7 days at 37° C. in an incubator. Media is then removed, and the cells are prepared for total nucleic acid extraction (including replicon RNA and host RNA). Replicon RNA can then be amplified in a Q-RT-PCR protocol, and quantified accordingly. […] This value is called DeltaCt (ΔCt or DCt).
This value is called DeltaCt (ΔCt or dCt).

A further series concerns Huh-7 cells. The series can be described thus: Cellular rRNA levels / cytotoxicity in HCV replicon cells. As to conditions: IFN tested at 100 IU/ml; 4 days; listed as IFN-α-2a. The source says: In a typical setting, a compound might reduce both the host RNA polymerase activity and the replicon-encoded polymerase activity. Therefore, quantification of rRNA (or any other host RNA polymerase I product) or beta-actin mRNA (or any other host RNA polymerase II) and comparison with RNA levels of the no-drug control is a relative measurement of the effect of the test compound on host RNA polymerases.
With the availability of both the HCV ΔCt data and the rRNA ΔCt, a specificity parameter can be introduced. This parameter is obtained by subtracting both ΔCt values from each other.
IFN-α-2a and ribavirin were tested over a range of concentrations for their ability to reduce the HCV RNA levels in exponentially growing replicon cells after 4 days of exposure as described (Stuyver, L. et al. “A ribonucleoside analogue that blocks the replication of bovine viral diarrhea and hepatitis C viruses in culture” Antimicrob. Agents Chemother. 2003, 47, 244-254).
Gemcitabine was dissolved in DMSO and added to the culture media of a cellular model system of Huh7 cells harboring self-replicating HCV RNA, at final concentrations ranging from 0.1 to 50 dM. […]
(A replicon is a self-replicating genome or part of one, used to study replication in cells.)

The subject of series [2] is HCV replicon RNA. In words: Replicon RNA copy number per cell. The format is cell-based, hepatitis C virus (HCV). As to conditions: 100 IU/ml; at day 3. How it is done: FIG. 4 is a graphical depiction of the log10 changes for replicon RNA levels per cell. The plots were obtained from data collected in FIGS. 2 and 3, in which log10 changes for cell count and replicon RNA levels were subtracted from each other. A. Control antiviral compounds. ●: no drug control; ▾: IFN-α-2a at 100 IU/ml; ▪: ribavirin at 100 μM. B. Selection of the most important anti-metabolites. ●: no drug control; ▾: dFdC at 50 nM; ▪: CP-C at 25 μM; ♦: CPE-C at 2.5 μM; ▴: PALA at 10 μM; ●: PZF at 5 μM.
To express the specificity of the antiviral action of the control compounds versus the anti-metabolites, the log10 change in replicon RNA copy number per cell and per day was calculated from the above experiments. IFN-α-2a reduced the copy numbers per cell by approximately 1.6 log10 at day 3, after which a new steady state level was achieved on days 4-7 (FIG. 4A).

Series [3] deals with HCV replicon RNA. In words: 7-day dynamics of HCV RNA levels. The series is classed as cell-based, hepatitis C virus (HCV).
The test system of series [4] is HCV replicon cells (Huh-7). The series can be described thus: 7-day cell growth dynamics, trypan-blue cell count. Here is the method:
FIG. 2 is a graphical depiction of the dynamics of cell growth and HCV RNA levels after exposure to control anti-HCV compounds. HCV replicon cells were seeded at approximately 10^4 cells per well in a 24-well plate. Over a 7-day period, cells were counted daily, and rRNA and HCV RNA were quantified by Q-RT-PCR. A: IFN-α-2a at 100 IU/ml; B: ribavirin at 100 μM. ●: cell proliferation in absence of compound; ◯: cell proliferation in presence of compound; ▾: HCV RNA levels in untreated cells; ∇: HCV RNA levels in the presence of compound. The curves shown are averages of 3 independent experiments.
Therefore, experiments were conducted to monitor HCV RNA levels and the cell growth dynamics over a 7-day period.
The dynamics of HCV replicon cells exposed to these inhibitors (at their EC90 value) was monitored over a 7-day period.

A further series has as its system HCV replicon cells. The series can be described thus: Prevention studies with natural ribo- or 2′-deoxy nucleosides. The series is classed as cell-based, human. The conditions noted are these: test compound at 96 h EC90 value; nucleosides at 50 μM.
The test system of series [5] is HCV replicon. The conditions noted are these: after 96 hr of incubation; as previously reported by Stuyver et al.; cited from earlier work.

For the substance “Interferon-α-2a: recombinant interferon alfa-2a (Roferon-A, Hoffmann-Roche), positive control”, the “Corrected HCV RNA EC90” value in the series with HCV replicon [1] (96 h incubation) stood at 4.5 IU/ml. In addition, in the series with HCV replicon [1] (IFN tested at 100 IU/ml, 4 days), the “log10 RNA reduction, HCV” value worked out at 1.57 ± 0.26 log10. In addition, the “Corrected HCV RNA log10 reduction” value was found to be 1.36 ± 0.37 log10 in the series on HCV replicon [1] (IFN tested at 100 IU/ml) and 1.36±0.37 log10 in the series on HCV replicon [1] (IFN tested at 100 IU/ml, listed as IFN-α-2a). The “log10 RNA reduction, rRNA” value in the series on Huh-7 cells was “minimal effect”. For the same substance, in the series on HCV replicon RNA [2], the “reduction of replicon RNA copy number per cell” value was “approximately 1.6 log10”. In addition, in the series on HCV replicon RNA [3] (7-day period, at 96 h EC90 value (IFN 100 IU/ml)), the “effect on HCV RNA levels” value is on record as “significant drop in HCV RNA levels”. The “HCV RNA levels over the 7-day period” value in the series on HCV replicon RNA [3] (100 IU/ml, 7 days, control 1.79±0.4) is given as −0.53±0.4. Moreover, the “effect on cell proliferation” value in series [4] (7-day period, at 96 h EC90 value (ribavirin 100 μM, IFN 100 IU/ml)) is “grew significantly slower”. Besides, the “cell growth, log10 increase from day 0” value in series [4] (100 IU/ml, day 7, untreated 1.31±0.08) is 1.07±0.06 log10. Moreover, the “prevention of antiviral and cytostatic effects by natural nucleosides” value in the series on HCV replicon cells is given as “could not be prevented by any of the natural nucleosides”. Also, the “corrected EC90 value” in the series on HCV replicon [5] is recorded as 4.5 IU/mL.

Values taken from US20050049220A1, “Dosing regimen for Flaviviridae therapy” (priority 2003, published 2005).
